## Binding of CDR-mutated scFvs to a peptide of the spike HR2 region

From the AlphaSeq antibody data of Li et al. 2023 (doi:10.1038/s41467-023-39022-2), copy in the FLAb collection.

All variants were tested on one target, the spike HR2 peptide PDVDLGDISGINAS (SARS-CoV-2).

Parent: Ab-14, a human scFv built as VH, a (GGGGS)3 linker, VL. Only the CDRs of the light chain vary.
VH: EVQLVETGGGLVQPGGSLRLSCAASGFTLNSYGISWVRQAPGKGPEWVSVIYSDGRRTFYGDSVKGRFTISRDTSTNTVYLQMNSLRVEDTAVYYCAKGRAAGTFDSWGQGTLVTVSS
VL: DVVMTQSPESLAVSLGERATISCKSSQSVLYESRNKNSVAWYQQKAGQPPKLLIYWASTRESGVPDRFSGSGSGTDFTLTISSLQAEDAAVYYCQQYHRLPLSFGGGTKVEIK

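The parent was found by panning a naive human phage display library on the peptide. Designed CDR sequences, proposed from the first random library and measured here. Group labels follow the data file (Ctrl: baseline library sampled from a position-specific scoring matrix, with some repeated check sequences; Rand: our label for a block that the file lists under HC and that is probably the random mutants of the ten best first-round binders; En: ensemble of fine-tuned language models; GP: Gaussian process model; GPLM: also part of the Gaussian process libraries; HC: hill climbing; Gen: genetic algorithm; Gibbs: Gibbs sampling; a sequence that several methods proposed may carry one label only). In AlphaSeq, yeast of one mating type display the scFv and yeast of the other type display the target. The frequency of each diploid, read from paired DNA barcodes, reflects how well the two displayed proteins bind. Read counts were normalised to the haploid input and turned into Kd by a linear fit to BCL2-family pairs of known affinity, for each replicate. The assay was run in six technical replicates.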

The parent's light chain CDRs are KSSQSVLYESRNKNSVA, WASTRES, QQYHRLPLS; each variant's own CDRs replace them letter for letter. The read-out is the apparent dissociation constant on a log10 scale (nM): the lower, the stronger. Averages over replicates are reported, and they cover detected replicates only. Where no diploid with the target was found in that replicate, the entry reads "n.d.": below detection, most likely a poor binder, though not proof of it. Entries are sorted by rising average, undetected variants last. The parent sequence was in this pool as ten entries: three were never detected, three once, and four in most replicates, with averages from 0.34 to 2.37. Three control strains display no target. For all light chain designs, 4% of the pairings with them gave a signal, with a median of 2.64 and one signal in twenty below 1.59, so weak values seen in few replicates may be background. The control count says in how many pairings with the empty strains this scFv gave a signal, with their mean in brackets. The range of this assay differs from that of the first round, and the authors advise against merging the two. The authors averaged sequences with at least three values out of six and counted those with two or fewer as poor binders.

| # | CDR-L1 | CDR-L2 | CDR-L3 | group | replicates, log10 nM | mean log10 Kd (nM) | control signals |
|---|---|---|---|---|---|---|---|
| 1 | KLVMSELYESRQKNSVA | NASQREM | QQYHRLPLS | GP_Gibbs | -0.09 -0.38 -0.76 -0.39 -0.47 -0.44 | -0.42 | 1 of 18 (1.26) |
| 2 | HLSQSVPYESRNKNSVA | NASTRES | QQYHRLPLS | GP_Gen | -0.24 -0.46 -0.56 -0.55 -0.34 -0.27 | -0.40 | 3 of 18 (2.86) |
| 3 | KLEQSWLYESRNKNAVA | NASTRES | QQYHRLPLS | GP_Gen | -0.24 -0.18 -0.26 -0.46 -0.39 0.24 | -0.22 | 0 of 18 |
| 4 | KLSQSVLYESRNKNSVA | EAHTRES | QQYHRLPLS | GP_Gen | 0.11 -0.19 -0.22 -0.34 -0.23 -0.04 | -0.15 | 1 of 18 (3.89) |
| 5 | KLSQQAEYESRNKNSVA | QASTREM | QQYHRLPLS | GP_Gibbs | 0.07 -0.26 -0.14 -0.14 -0.28 0.04 | -0.12 | 0 of 18 |
| 6 | SLDMREPPYSALSGSVA | GSANRAI | QQYFRLPLS | En_Gibbs | 0.18 0.15 -0.31 -0.09 -0.13 -0.20 | -0.07 | 1 of 18 (2.90) |
| 7 | KLQQSVLYESRNKNSVA | NASTRMS | QQYHRLPLS | GP_Gen | 0.03 -0.15 -0.38 0.00 0.13 0.40 | 0.01 | 0 of 18 |
| 8 | KLPQSQLYESRNKNSVA | QASTRLS | QQYHRLPLS | GP_Gen | 0.15 0.00 0.04 0.12 -0.02 0.08 | 0.06 | 2 of 18 (2.81) |
| 9 | KSSPSYLYESRNKNSVA | EASTRES | QQYHRLPLS | GPLM_HC | 0.36 -0.04 -0.03 0.03 -0.03 0.29 | 0.10 | 1 of 18 (3.92) |
| 10 | KFSDSVLLESRTVNSVA | NASTRES | QQYHRLPLS | GP_HC | 0.30 0.07 0.18 -0.14 0.32 0.33 | 0.18 | 1 of 18 (2.40) |
| 11 | KLQQSVLYESRNKNSVA | QASTRES | QDYHRLPLS | GP_Gen | 0.64 -0.13 0.11 -0.04 -0.07 0.67 | 0.20 | 0 of 18 |
| 12 | KQSQSVMGEERNKNSVA | AASDREV | QQYHRLPLS | GP_Gibbs | 0.39 0.19 0.34 0.12 0.11 0.32 | 0.25 | 3 of 18 (2.44) |
| 13 | KQSTSVLYESVNKNSVA | DASTRES | QQYHRLPLS | GP_HC | 0.34 0.29 0.51 0.20 0.17 0.37 | 0.31 | 1 of 18 (2.21) |
| 14 | KSYQSYLYESRNKNSMA | GASTRES | QQYHRLPLS | Ctrl | 0.54 0.21 0.23 0.24 0.43 0.52 | 0.36 | 1 of 18 (1.78) |
| 15 | KVQQSVMYESRNKNSVA | EASTRES | QQYHRLPLS | GP_Gen | 0.60 0.63 0.39 0.19 0.25 0.61 | 0.45 | 2 of 18 (2.53) |
| 16 | KLSQSQGYESRNKNSVA | HASTRES | QQYHRLPLS | GP_Gen | 0.80 0.51 0.31 0.59 0.24 0.49 | 0.49 | 0 of 18 |
| 17 | TLGDVTRMESNKKSSIA | DMSNRAV | QQYHRLPIS | En_HC | 0.35 0.54 0.55 0.32 0.43 0.87 | 0.51 | 1 of 18 (2.92) |
| 18 | KLDGSDLYESRNKNSVA | EASTRES | QAYHRLPLS | GP_Gibbs | 0.78 0.49 0.56 0.52 0.41 0.42 | 0.53 | 0 of 18 |
| 19 | AMSQSVLYESRNKNNVA | WASTRES | QQYHALPLS | Ctrl | 0.67 0.70 0.53 0.58 0.60 0.70 | 0.63 | 1 of 18 (2.26) |
| 20 | KVSQSELYESRQKNSVA | NASQRES | QQYHRLPLS | GP_Gen | 0.97 0.59 0.71 0.41 0.70 0.93 | 0.72 | 3 of 18 (3.25) |
| 21 | RFTEHILGLENKIYAIA | NATKLME | QQYFRLPFA | En_Gibbs | 0.93 0.61 0.84 0.80 0.44 1.05 | 0.78 | 1 of 18 (2.71) |
| 22 | KSSQSVLGESGNKNSVA | EASTRES | QQYHHLPLS | Ctrl | 0.99 0.65 0.90 0.76 0.56 0.90 | 0.79 | 2 of 18 (1.80) |
| 23 | KLSMGHGYGSRMKNSVA | QASQREE | QQYHRLPLS | GP_Gibbs | 0.84 0.90 0.68 0.64 0.77 0.99 | 0.80 | 3 of 18 (2.85) |
| 24 | RGQEDLQKGTNIGNNIA | EAQTVID | QQYAHLPLQ | En_Gibbs | 1.01 0.68 0.90 0.89 0.83 0.70 | 0.84 | 1 of 18 (1.34) |
| 25 | KSSQLVLYESRNKNSVA | NASTRES | QQYHRLPLS | Ctrl | 1.35 0.59 0.84 0.81 0.84 0.90 | 0.89 | 0 of 18 |
| 26 | HVGQTRQADISNKKSVA | EGETLID | QQYGRLPFS | En_Gibbs | 0.82 1.06 0.79 0.58 0.89 1.27 | 0.90 | 1 of 18 (3.08) |
| 27 | KLGSMVLLEHGNQNSIA | QQSTREE | QQYDRLPLS | En_HC | 1.02 0.97 0.81 0.82 0.83 1.02 | 0.91 | 1 of 18 (2.72) |
| 28 | LTMKFNSQMGNAQNSIA | AGTSRVQ | QCYYRLPLS | En_Gibbs | 1.25 1.39 0.72 0.58 1.14 0.64 | 0.95 | 1 of 18 (2.51) |
| 29 | SLAYTQHFGQTGGKAIA | EVAMRCQ | QQYFRLPLG | En_Gibbs | n.d. 0.46 1.35 1.45 0.80 1.61 | 1.13 | 0 of 18 |
| 30 | KQSQSVPYESRNKNSVA | DASTRES | QQYHRLPLD | GP_HC | 0.80 0.93 1.27 1.49 1.22 1.48 | 1.20 | 0 of 18 |
| 31 | KLQQSEEYESRQFNSVA | EASQRNL | QQYHRLPLS | GP_Gibbs | 2.16 1.10 1.36 1.04 0.87 1.14 | 1.28 | 1 of 18 (2.62) |
| 32 | KLSMITGHQLMAKNNVA | EMVTREN | QQYNRLPLS | En_Gen | 2.20 1.45 0.96 0.90 1.30 1.39 | 1.37 | 0 of 18 |
| 33 | KSSSSVLYESRNKNSVA | WASTRED | QQYHRLPLS | Ctrl | n.d. 1.62 1.99 1.44 1.09 n.d. | 1.53 | 0 of 18 |
| 34 | NFSQMVQTGMTLRNSVA | HASMRFN | QQYHRLPLI | En_HC | 2.10 1.31 0.98 1.36 1.90 1.84 | 1.58 | 0 of 18 |
| 35 | KLSATYRWESQNKNSIA | EMTTRES | QCYHRLPLS | En_HC | n.d. 2.52 2.22 0.67 1.59 2.99 | 2.00 | 1 of 18 (2.12) |
| 36 | KSNQSDLYESRNKNSVA | WASTRES | QQYHRLPLS | Ctrl | 2.03 2.11 1.17 2.50 2.15 3.04 | 2.17 | 2 of 18 (3.19) |
| 37 | MIYGAQRELGRAANSIA | DNVTRYS | QQYERLPLS | En_Gen | n.d. n.d. n.d. 2.51 n.d. n.d. | 2.51 | 0 of 18 |
| 38 | KSLQSYLYESRNKTSVA | HASTRED | QYYHRLPLS | Rand | n.d. 2.68 2.47 2.49 3.30 n.d. | 2.73 | 1 of 18 (2.47) |
| 39 | FLRQSTLYESRNKNSLA | WASTRES | QQYHRLPLS | Rand | n.d. n.d. n.d. n.d. 3.00 n.d. | 3.00 | 0 of 18 |
| 40 | KSIQSNLYESNNKNSVA | WASTREI | QQYHRLPVS | Ctrl | n.d. n.d. n.d. n.d. n.d. n.d. | n.d. | 0 of 18 |
| 41 | KSSQSVLYESRNKNSVA | QASTRES | QQYHRWPLS | Ctrl | n.d. n.d. n.d. n.d. n.d. n.d. | n.d. | 0 of 18 |

The 3 strongest on average among those seen in every replicate, once more:

{"CDR-L1": "KLVMSELYESRQKNSVA", "CDR-L2": "NASQREM", "CDR-L3": "QQYHRLPLS", "group": "GP_Gibbs", "replicates, log10 nM": "-0.09 -0.38 -0.76 -0.39 -0.47 -0.44", "mean log10 Kd (nM)": "-0.42", "control signals": "1 of 18 (1.26)"}
{"CDR-L1": "HLSQSVPYESRNKNSVA", "CDR-L2": "NASTRES", "CDR-L3": "QQYHRLPLS", "group": "GP_Gen", "replicates, log10 nM": "-0.24 -0.46 -0.56 -0.55 -0.34 -0.27", "mean log10 Kd (nM)": "-0.40", "control signals": "3 of 18 (2.86)"}
{"CDR-L1": "KLEQSWLYESRNKNAVA", "CDR-L2": "NASTRES", "CDR-L3": "QQYHRLPLS", "group": "GP_Gen", "replicates, log10 nM": "-0.24 -0.18 -0.26 -0.46 -0.39 0.24", "mean log10 Kd (nM)": "-0.22", "control signals": "0 of 18"}